In this test the test system is GBR complex ([35S]TBPS site). Description: dissociation kinetics of [35S]TBPS in cortical P2 homogenates. The class given is binding, rat. The following applies: [35S]TBPS dissociation; alphaxalone 300 nM; 3a-OH-DHP 20 nM. How it is done:
An assay was performed to determine the effect of pentobarbital on the dissociation kinetics of [^35 S]TBPS in rat cerebral cortical membranes. This assay was performed in accordance with the procedures outlined above. […] Dissociation of bound [^35 S]TBPS was initiated by 2 micromolar TBPS in all cases.
The steroid and barbiturate sites are, therefore, distinct.

Molecules are shown by their SMILES.

Consider `CC(=O)[C@H]1CC[C@H]2[C@@H]3CC[C@H]4C[C@H](O)CC[C@]4(C)[C@H]3CC[C@]12C` [3α-hydroxy-5α-pregnan-20-one], for which the “k-1, rapidly dissociating component (R)” value stood at 0.122 min⁻¹.

The record behind these values is patent publication US5208227A, “Method, compositions, and compounds for modulating brain excitability” (priority 1991, dated 1993).
